Experimental data: patent publication US8352031B2, “Protein activity modification” (Impulse Dynamics NV, priority 2004, dated 2013)

Test system: phospholamban serine-16
Assay: Phosphorylation of PLB at serine-16 in failed LV tissue homogenate with/without PK inhibitor and CCM signal (Western blot)
Assay type: biochemical, dog
Conditions: Control + PK Inhibitor, no CCM, single samples

CN[C@@H]1C[C@H]2O[C@@](C)([C@@H]1OC)n1c3ccccc3c3c4c(c5c6ccccc6n2c5c31)C(=O)NC4 [STAUROSPORIN]
P-PLB serine-16 (10 sec): 13.7 | P-PLB serine-16 (30 sec): 11.9
